Values of other authors, collected in US20110217713A1 (On-Q-ity, priority 2010, published 2011).

Test system: EGFR in NSCLC
Conditions: NSCLC patient population, unselected; cited from earlier work

Q: With `COc1cc2ncnc(Nc3ccc(F)c(Cl)c3)c2cc1OCCCN1CCOCC1` [Iressa, gefitinib] as the compound, how does the “clinical trials efficacy (response for the test population)” value read?
A: The value was “around 15%”.
